Assay outcomes from PubChem BioAssay.
ALDH1A1 block: ALDH1A1 (human) enzyme inhibition; P00352; Purified ALDH1A1, NADH fluorescence, propionaldehyde substrate; Potency, µM (doses to about 75.3 µM), for the others: at the highest dose activity, negative = inhibition, hits mostly inhibitors; hit rate 7.3% among 220,000; active = well fitted inhibition curve with a large enough effect, not every such curve was filed as active; inconclusive = small, poorly fitted or top-dose-only effect, or another doubt; inactive = no such curve, though single readings can be large or run the other way;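 also: potency is read from the fitted curve at half-maximal effect; plate controls were no enzyme wells and a reference inhibitor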
Sfp PPTase inh: Sfp phosphopantetheinyl transferase inhibition; Q9F4F7; Biochemical Sfp PPTase activity, qHTS; Potency, µM, for the others: max response, negative = inhibition, most hits filed as inhibitors; 310,000 tested, 3.5% active; AID 1490; active = well fitted inhibition curve with a large enough effect; inconclusive = small, poorly fitted or top-dose-only effect, or another doubt; inactive = no such curve, though single readings can be large or run the other way;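 also: the enzyme is Sfp with the accession as filed and its product quenches rhodamine fluorescence; potency is read from the fitted curve at half-maximal effect; 0% = enzyme reaction without inhibitor and -100% = no enzyme wells; top concentration of the series not given in the record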
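Step 1, compound plus 15 nM Sfp-PPTase, 15 min, room temperature. Step 2, add rhodamine-CoA (5 uM) and BHQ-2-YbbR (12.5 uM). Step 3, read 525/598 nm fluorescence at 0 and 30 min.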
G9a inh: inhibitors of human histone lysine methyltransferase G9a | Q96KQ7 | G9a H3K9 monomethylation, AlphaScreen, 2 h | Potency, µM (top dose mostly 102 µM), without a hit: at the top dose activity, negative = inhibition, usual class: inhibitors | hit rate 8.8% among 350,000 | AID 504332; also: potency is read from the fitted curve at half-maximal effect; % is scaled to controls: 0 for no effect and ±100 for the full control effect; nearly all actives have a fitted effect of over 75% in size
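Step 1: enzyme (final 20 nM) with compound, 15 min RT. Step 2: substrate peptide 500 nM and SAM 20 uM, 2 h RT. Step 3: anti-H3K9me1 antibody and AlphaScreen beads, 10 min, then plate read.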
miR-21 reporter: raises the signal of a miR-21 reporter; AID 2288; 340,000 tested, under 10 active; Potency, µM (doses to about 38.3 µM), inactives show at the top dose reporter change, positive = more light; HeLa miR-21 FLuc reporter, luciferase, 48 h; active = well fitted rising curve with a large enough effect; inconclusive = small, poorly fitted or top-dose-only effect; inactive = no such curve, though single readings can be large or run the other way;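 note: % of control where 0% means no effect; miR-21 action dims this reporter so a rising signal means less miR-21 action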
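HeLa miR-21-FLuc reporter line, endogenous miR-21; 2000 cells/well in DMEM/10% FBS; compound titration up to ~40uM final, 48 h, 37 degree Celsius; luciferase detection reagent, 15 min lysis, CCD luminescence.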
KDM4E inh: JMJD2E (human) inhibition | B2RXH2 | JMJD2E catalytic domain, FDH-coupled NADH fluorescence (FDH is formaldehyde dehydrogenase) | Potency, µM (top dose mostly 57.1 µM), for the others: top-dose activity change, negative = inhibition, most hits filed as inhibitors | hit rate 1.6% among 230,000; active = well fitted inhibition curve with a large enough effect, not every such curve was filed as active; inconclusive = small, poorly fitted or top-dose-only effect, or another doubt; inactive = no such curve, though single readings can be large or run the other way;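 also: potency is read from the fitted curve at half-maximal effect; 0% = wells with enzyme and -100% = buffer wells without enzyme; nearly all actives have a fitted effect of over 50% in size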
LMNA splice mod: LMNA splicing modulation. hit rate 0.01% among 200,000. HeLa LMNA splicing GFP/RFP minigene ratio, 48 h. Potency, µM (doses to about 46.1 µM), without a hit: at the top dose ratio change, negative = inhibition, usual class: inhibitors; active = well fitted inhibition curve with a large enough effect in the signal ratio, with a control signal flat, not every such curve was filed as active; inconclusive = small, poorly fitted or top-dose-only effect, or effect the other way, or a change in a side signal; the % refers to the signal ratio; also: potency is read from the fitted curve at half-maximal effect; % is scaled to controls: 0 for no effect and ±100 for the full control effect
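S3 HeLa cells stably expressing lamin A-EGFP splicing minigene plus DsRed2, 600 cells/well, 48 h compound exposure at 37C. Laser-scanning cytometry; analysed as GFP (500-530 nm)/RFP (575-640 nm) total intensity ratio; 0.5% DMSO vehicle.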
* hit, by the source's call; ? = inconclusive; . = no result given; ! = not confirmed by another sample; [ ] = another dose, or the depositor's remark. Most compounds without a hit are left out; they make up all but 13% or so of the library. Unless noted, calls follow the shape of the dose curve; as a rule, active = well fitted curve in the direction sought with a large enough effect; inconclusive = small, poorly fitted or top-dose-only effect, or another doubt; inactive = no such curve, though single readings can be large; an effect the other way counts as inactive or inconclusive.

no.	canonical_smiles	G9a inh	KDM4E inh	Sfp PPTase inh	LMNA splice mod	ALDH1A1 block	miR-21 reporter
1	O=C(O)COc1ccccc1/C=C1\SC(=O)N(Cc2ccc(F)cc2)C1=O	-27%	-9%	-4%	-10%[46 µM]	-6%	-4%
2	CN1CCN(C(=O)CCCN2C(=O)/C(=C/c3ccccc3)SC2=S)CC1	?	.	6%	.	.	?
3	CN1CCc2c(sc3ncn4nc(-c5ccccc5O)nc4c23)C1	94%[12.7 µM]	22µM*	-3%	?	?	3%
4	c1coc(-c2nc3c4c5c(sc4ncn3n2)CCCC5)c1	-21%[59 µM]	1%	7%	-4%	3%	-4%
5	Cc1ccc(-c2cc(NC(=O)COc3c(C)cc(C)cc3C)on2)cc1	4%[59 µM]	.	.	.	.	-44%
6	O=C(Nc1cccc2ccccc12)N1CC=C(c2ccccc2)CC1	45µM*	?	-2%	-12%	?	-6%
7	Cc1ccc(Cl)cc1NC(=S)N(CCCN1CCOCC1)Cc1ccco1	?	3%	11%	-3%[46 µM]	-6%	3%
8	O=C(CSC1=NS(=O)(=O)c2cc(Cl)ccc2N1)Nc1cccc(F)c1	-9%	.	.	.	.	.
9	CC1=NS(=O)(=O)c2cc(Cl)ccc2N1	2.8µM*!	-1%	21%	?	0%	2%
10	O=C(CSC1=NS(=O)(=O)c2cc(Cl)ccc2N1)c1ccc(Cl)cc1	56µM*	.	.	.	.	.
11	O=c1c2cn[nH]c2[nH]c(=S)n1-c1ccccc1	8.9µM*	-8%	14µM*	1%	?	2%
12	COc1ccc(-n2c(=S)[nH]c3[nH]ncc3c2=O)cc1	.	-16%	50µM*	.	.	1%
13	O=c1c2cn[nH]c2[nH]c(=S)n1-c1cccc2ccccc12	50µM*	-11%	-22%	4%	-10%	-7%
14	N#CCSc1nc2[nH]ncc2c(=O)n1-c1ccccc1Br	7%[59 µM]	6%	?	-6%	?	?
15	Cc1ccccc1C(=O)Nc1cccc(-c2nc3cccnc3s2)c1	-60%[59 µM]	.	.	.	.	1%
16	COc1ccc(N/N=C(/C)c2cnnc(-c3ccccc3)n2)cc1	1.4µM*	-7%	-23%	-6%	9.5µM*	-22%
17	CC1(C)CC(=O)C2=C(C1)OC1=C(C(=O)CC(C)(C)C1)C2c1ccc(O)cc1O	2.8µM*	?	7.9µM*	?	0.89µM*	?
18	CC1(C)CC(=O)C2=C(C1)OC1=C(C(=O)CC(C)(C)C1)C2c1ccc(O)c([N+](=O)[O-])c1	-27%	5%	8%	10%[46 µM]	-7%	2%
19	CC(NC(=O)CCCC1=NS(=O)(=O)c2ccccc2N1)c1ccccc1 (configuration not stated)	4%[59 µM]	.	.	?	.	-2%
20	Cc1ccc(NC(=S)N(CCCN2CCOCC2)Cc2ccccn2)cc1Cl	35%[59 µM]	-1%	32µM*	?	-12%	-5%
21	Cc1cc(Cl)ccc1NC(=S)N(CCCN1CCOCC1)Cc1cccs1	?	-3%	45µM*	-6%	-13%	-4%
22	Cc1ccc(Cl)cc1NC(=S)N(CCCN1CCN(C)CC1)Cc1cccs1	?	1%	10%	-5%[46 µM]	-3%	8%
23	CCOC(=O)c1c(C)oc(NC(=O)CCl)c1C(=O)OCC	7%	6%	4%	.	3.5µM*	4%
24	CCCCNCC(=O)Nc1sc(C)c(C)c1C(=O)OCC	2%[59 µM]	-3%	6%	-8%	-1%	-7%
25	CC(=O)c1c(C)n(-c2cccc(Cl)c2)c2ccc(O)cc12	35µM*	.	-18%	.	.	2%
26	CC(=O)c1c(C)n(-c2ccc(Cl)cc2)c2ccc(O)cc12	?	.	1%	.	.	10%
27	CCN(Cc1nc2ccccc2c(=O)[nH]1)C(=O)c1ccc(C)c(NC(=O)c2ccco2)c1	8%[59 µM]	.	.	.	.	.
28	CO[C@@]1(NC(=O)C2SC(=C(C(N)=O)C(=O)O)S2)C(=O)N2C(C(=O)O)=C(CSc3nnnn3C)CS[C@@H]21 (some centres not stated)	16µM*	.	.	.	.	.
29	CCSc1nc(O)cc(=O)[nH]1	7%[12.7 µM]	5%	19%	.	.	1%
30	CCSc1nc(=S)cc(C)[nH]1	10µM*	-3%	22µM*	?	28µM*	3%

Given with one line to a screen: five of the compounds above.
3. CN1CCc2c(sc3ncn4nc(-c5ccccc5O)nc4c23)C1
4. c1coc(-c2nc3c4c5c(sc4ncn3n2)CCCC5)c1
5. Cc1ccc(-c2cc(NC(=O)COc3c(C)cc(C)cc3C)on2)cc1
6. O=C(Nc1cccc2ccccc12)N1CC=C(c2ccccc2)CC1
7. Cc1ccc(Cl)cc1NC(=S)N(CCCN1CCOCC1)Cc1ccco1

| entry no. | 3 | 4 | 5 | 6 | 7 |
| --- | --- | --- | --- | --- | --- |
| G9a inh | 94%[12.7 µM] | -21%[59 µM] | 4%[59 µM] | 45µM* | ? |
| KDM4E inh | 22µM* | 1% | . | ? | 3% |
| Sfp PPTase inh | -3% | 7% | . | -2% | 11% |
| LMNA splice mod | ? | -4% | . | -12% | -3%[46 µM] |
| ALDH1A1 block | ? | 3% | . | ? | -6% |
| miR-21 reporter | 3% | -4% | -44% | -6% | 3% |
